For one compound, inhibition results are on record in patent publication US7244837B2, “Insect monoamine transporter and methods of use thereof” (The University of Western Ontario, priority 1999, dated 2007).

The assay has as its target T1, OA/TAT (octopamine/tyramine transporter) (Trichoplusia ni, UniProt Q95VZ4, D309A/R312W).
T1 sequence (Q95VZ4 75-744 D309A/R312W): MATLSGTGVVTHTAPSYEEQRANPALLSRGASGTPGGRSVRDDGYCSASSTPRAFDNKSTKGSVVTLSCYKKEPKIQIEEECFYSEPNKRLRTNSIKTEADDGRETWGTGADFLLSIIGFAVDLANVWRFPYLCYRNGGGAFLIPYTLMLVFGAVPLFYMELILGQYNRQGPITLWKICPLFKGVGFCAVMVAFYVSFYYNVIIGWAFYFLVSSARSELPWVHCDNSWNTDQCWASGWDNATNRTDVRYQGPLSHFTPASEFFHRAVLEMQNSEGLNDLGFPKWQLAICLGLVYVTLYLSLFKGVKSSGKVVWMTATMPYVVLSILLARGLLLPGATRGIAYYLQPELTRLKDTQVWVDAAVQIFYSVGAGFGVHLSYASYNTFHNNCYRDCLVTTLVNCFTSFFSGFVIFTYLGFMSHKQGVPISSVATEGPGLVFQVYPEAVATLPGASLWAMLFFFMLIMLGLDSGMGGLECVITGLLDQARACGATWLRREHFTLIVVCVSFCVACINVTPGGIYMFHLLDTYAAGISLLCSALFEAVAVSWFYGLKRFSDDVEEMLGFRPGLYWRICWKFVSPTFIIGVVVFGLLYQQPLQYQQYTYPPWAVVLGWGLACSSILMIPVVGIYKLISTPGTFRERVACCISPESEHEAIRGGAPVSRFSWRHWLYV
The assay can be described thus: 3H-dopamine uptake by OA/TAT expressed in baculovirus-infected Sf21 insect cells (transport assay). To be noted: read-out: % Inhibition of 3H-Dopamine uptake by OA/TAT. The assay is classed as cell-based.

On to `CN(C)CCCN1c2ccccc2Sc2ccc(Cl)cc21` [Chlorpromazine], for which the inhibition at 10 µM amounted to 41%.
